Experiment [1] deals with M2 muscarinic receptor (Rattus norvegicus, UniProt P10980). The experiment can be described thus: Radioligand binding assay, [3H]-N-methylscopolamine, rat heart membranes. The settings on record: read-out: Receptor Binding Assay Ki (nM) M2, [3H]NMS binding.
Experiment [2] deals with M3 muscarinic receptor (Rattus norvegicus, UniProt P08483). Particulars: for Ki: read-out: Receptor Binding Assay Ki (nM) M3, [3H]NMS binding, rat submandibular gland.

Protein sequences, listed by entry. Tags and fused reporters are not part of them. Lines headed by an entry give the natural chain unless they say otherwise; changes in a name come on top.
UniProt P10980: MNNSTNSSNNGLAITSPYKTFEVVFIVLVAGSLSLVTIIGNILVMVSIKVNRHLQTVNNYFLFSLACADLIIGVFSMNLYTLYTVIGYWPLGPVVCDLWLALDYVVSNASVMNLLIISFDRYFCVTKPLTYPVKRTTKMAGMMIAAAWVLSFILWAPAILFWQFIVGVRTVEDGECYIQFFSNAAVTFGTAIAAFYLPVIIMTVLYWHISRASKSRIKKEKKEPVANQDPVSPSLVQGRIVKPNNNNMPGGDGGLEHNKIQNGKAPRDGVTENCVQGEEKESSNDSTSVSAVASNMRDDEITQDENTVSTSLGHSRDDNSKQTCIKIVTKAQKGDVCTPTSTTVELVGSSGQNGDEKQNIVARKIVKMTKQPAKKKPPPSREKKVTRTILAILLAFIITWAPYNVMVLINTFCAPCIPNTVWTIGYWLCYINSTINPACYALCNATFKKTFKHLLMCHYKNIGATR
UniProt P08483: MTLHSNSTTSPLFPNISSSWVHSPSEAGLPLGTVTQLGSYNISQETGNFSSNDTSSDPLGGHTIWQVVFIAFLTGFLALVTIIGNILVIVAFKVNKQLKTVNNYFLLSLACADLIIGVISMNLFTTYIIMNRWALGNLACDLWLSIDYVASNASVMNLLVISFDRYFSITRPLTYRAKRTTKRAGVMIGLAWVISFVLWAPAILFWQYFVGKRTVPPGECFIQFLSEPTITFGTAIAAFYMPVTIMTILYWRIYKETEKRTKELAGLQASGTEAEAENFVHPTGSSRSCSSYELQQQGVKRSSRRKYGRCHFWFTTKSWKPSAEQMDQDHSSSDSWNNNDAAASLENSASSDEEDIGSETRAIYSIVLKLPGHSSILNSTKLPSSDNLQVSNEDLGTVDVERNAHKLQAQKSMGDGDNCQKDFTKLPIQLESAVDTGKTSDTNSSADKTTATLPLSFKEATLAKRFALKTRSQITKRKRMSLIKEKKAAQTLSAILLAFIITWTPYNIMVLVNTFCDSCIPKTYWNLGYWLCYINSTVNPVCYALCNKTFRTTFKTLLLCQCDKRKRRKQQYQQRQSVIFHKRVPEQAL

Broadly, the Ki is a dissociation constant, usually derived from enzyme kinetics or from competition with a known ligand.

Regarding “4-[(1R,5S)-3-azabicyclo[3.1.0]hex-3-yl]-but-2-ynyl-2-cyclopentyl-2-hydroxy(4-methyl phenyl)acetate”, the Ki was 28 nM in experiment [1] and 16 nM in experiment [2].
Consider “4-[(1R,5S)-3-azabicyclo[3.1.0]hex-3-yl]-but-2-ynyl-2-hydroxy-bis-[4-fluorophenyl]acetate”, for which the figures for the Ki in experiment [1] and in experiment [2] were 40 nM and 39 nM, respectively. Further, the Selectivity (M2/M3) in experiment [2] (ratio of Ki M2 / Ki M3) is 1.02.

Values taken from patent US7265147B2, “3,6-disubstituted azabicyclo [3.1.0]hexane derivatives useful as muscarinic receptor antagonists” (Ranbaxy Laboratories Limited, priority 2002, dated 2007).
